Experimental findings from PMC5015024 (Scientific Reports, 2016) are described below.

Sequences of proteins named here, by UniProt entry; tags and fusion partners are left off. Residues count along the entry.
UniProt P01375, 77-233: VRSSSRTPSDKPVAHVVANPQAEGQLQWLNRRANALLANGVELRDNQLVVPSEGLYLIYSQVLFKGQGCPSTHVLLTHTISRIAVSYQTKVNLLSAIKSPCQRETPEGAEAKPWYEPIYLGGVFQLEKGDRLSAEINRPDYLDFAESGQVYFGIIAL

The target of assay [1] is T1, Recombinant human tumor necrosis factor (TNF), unlabeled (human, UniProt P01375).
T1 construct: Tumor necrosis factor, human, recombinant; also called soluble TNF; trimeric TNF; source: bought: Life Technologies and Active Bioscience (lyophilized powder, reconstituted)
The experiment in a line: SPR; Biacore T-200, 25 °C; TNF inhibitor captured (ca. 100 RU) on mouse anti-human IgG (MH16-1) immobilised on a CM5 chip; TNF 50-300 ng/mL in PBS with 0.05% polysorbate-20 flowed at 30 uL/min, 600 s association, 600 s dissociation; constants per binding site on TNF (3 for the antibodies, 1:1 for etanercept). To be noted: both partners purified. On the technique in general: In SPR one partner is held on a chip, and binding of the other changes the refractive index at the surface.

For assay [2], the target named is T1, Recombinant human tumor necrosis factor …. The experiment in a line: SEC; fluid phase, fluorescence-assisted HP-SEC; serial four-fold dilutions of TNF (0.01-500 ng/ml) with a fixed 50-200 pg/ml of Fab'-488 in PBS with 1 mg/mL IVIG, 25 °C; free Fab'-488 against the molar concentration of binding sites on TNF, 1:1 binding model. The note with it: both partners purified. (In general: Size exclusion chromatography separates by hydrodynamic size, large species first.)

For orientation: Kd means the constant that tells how readily two partners part at equilibrium. One may read the koff as a measure of how fast the partners let go of each other. One may read the kon as the rate constant with which the complex forms.

B1: infliximab (Remicade), full-length chimeric IgG1 kappa antibody (antibody, V domains shown)
VH: EVKLEESGGGLVQPGGSMKLSCVASGFIFSNHWMNWVRQSPEKGLEWVAEIRSKSINSATHYAESVKGRFTISRDDSKSAVYLQMTDLRTEDTGVYYCSRNYYGSTYDYWGQGTTLTVSS
VL: DILLTQSPAILSVSPGERVSFSCRASQFVGSSIHWYQQRTNGSPRLLIKYASESMSGIPSRFSGSGSGTDFTLSINTVESEDIADYYCQQSHSWPFTFGSGTNLEVK
notes: heavy chain of infliximab, chimeric IgG1; kappa light chain of infliximab; IgG1 kappa; the constant part beyond the Fab is not in the PDB entry; also called IFX; source: bought: Remicade, MSD
Take B1: in assay [1], the Kd amounted to 0.138 nM, the dissociation rate constant (koff) is 0.00024 s⁻¹ and the on-rate constant (kon) amounted to 1.7e+06 M⁻¹ s⁻¹.

B2: DyLight-488 labeled infliximab Fab' fragment (Fab, V domains shown)
VH: B1 VH
VL: B1 VL
notes: heavy chain part of the Fab' of infliximab (as the heavy chain of m7, cut by pepsin); as the light chain of m7; also called infliximab Fab'-488; Fab'-488; source: from Remicade (MSD) with pepsin, then reduction and alkylation; labeled with DyLight 488
For the molecule B2, the dissociation constant Kd in assay [2] was 0.123 nM.
